Patent US20260193149A1, “[…] USEFUL MINERAL AMINO ACID COMPLEXES” (Statera Ag, LLC, priority 2022, published 2026)

Assays:
[1] = Precipitation / salting out of boron:amino acid solutions; type: physicochemical; settings: during or after reaction
Method: In order to create the solutions provided in Table 2, tap water was first placed into a 500-mL beaker, and the beaker was placed on a hot plate with a magnetic stirrer. A stir bar was then placed inside the beaker and the magnetic stirrer was turned to setting 8. A thermocouple was also inserted into the water in order to measure the temperature of the water. Once the initial temperature was measured, the mineral reactant was poured into the water and a stopwatch was started. The temperature of the solution was measured at 30-second increments. Upon dissolution of the mineral reactant, the amino acid (in this Example, glycine) was added to the solution and the temperature and time of addition were recorded. The end point of the coordination reaction was determined to be the point when (a) all solute was dissolved and (b) the temperature of the solution stabilized.
To mix the solutions, tap water was first placed into a 500-mL beaker, and the beaker was placed on a hot plate with a magnetic stirrer. […] The temperature was measured in 30-second increments. When all of the sodium borate dissolved, lysine was added and the temperature and time of the addition were recorded. The end point of the coordination reaction was recorded as the point when (1) all solute was dissolved and (2) the temperature of the solution stabilized. […]

corn = test: Boron absorption into corn leaf after foliar application, growth stage V5 (Example 4)
Method: Each solution was applied independently of one another at these rates, and the applications emulated commercial application conditions, with 30-inch spacings. The test solutions were applied to three different fields to allow for data replication. The corn was at growth stage V5 during the test. Each test solution was evenly applied using a portable foliar applicator ([…] M18 sprayer with a four-gallon tank). Application time per row was recorded to allow for the calculation of an average application rate of the applicator. Any remaining application solution was weighed to allow for the exact calculation of applied solution per acre (converted below to ounces per acre). The solution application rates are reported below in Table 11 and boron application rates are reported below in Table 12. Applications were done in the heat of the day (96° F.), with minimal wind to preclude drift. Control strips for each product at both application rates were identified, and tissue samples from the control strips were collected to reflect an application rate of 0.00 ounces of product per 68 ounces of water.
Tissues were collected after two days using standard tissue collection procedures. Twelve top collar leaves were collected per row. The leaf samples were placed in paper bags and sent to a commercial lab for leaf mineral analysis using ICP-AA.
The application rates reported above Table 11 were adjusted by the concentration of the applied product so that the data could be compared on an equivalent basis, which are reported in Table 12. Tissue boron was regressed against the adjusted applied rates using the Fit Y×X model of SAS JMP (v. 15.0). The Experimental Unit was Field.
Five chemical compounds containing boron were evaluated. The slope of the line was defined according to the following equation: […]

**Q.** For boron glycinate, which “precipitation / salting out from aqueous solution” value [1] is on record?
**A.** insoluble crystal structure precipitated; also recorded: irreversible precipitation of boric acid from the solution

**Q.** And the “precipitation / salting out from aqueous solution” value ([1]; listed as glycine:boron compound)?
**A.** precipitates once the reaction has come to completion

**Q.** And the “boron absorption less than boric acid” value (corn; corn V5, Example 4)?
**A.** 0.51 ppm/oz B

**Q.** And the “decrease of boron absorbed into leaf tissue compared to boric acid” value (corn; corn V5, Example 4)?
**A.** 0.51 ppm

**Q.** What about the “B Absorption, ppm/oz applied B” value (corn; corn V5, foliar application, top collar leaves collected after two days, slope of tissue boron vs applied boron) of the same substance?
**A.** 4.07 ppm/oz applied B

“Also recorded” adds a separate entry of the source.
